Numbering of substitutions follows the chain as printed. “And” between values parts separate entries of the source, which are not always exact repeats. Identical values can stand only once. Each block holds one molecule with its values, some of them ahead of it.
Assays:
[1] = target: T1, OAT1 Ser350Ala (S350A) mutant, human (Homo sapiens, UniProt Q4U2R8, S350A); assay: Cell-based 6-CF transport assay, HsOAT1 Ser350Ala mutant; details: human, pH 7.2
T1 sequence (Q4U2R8 1-563 S350A): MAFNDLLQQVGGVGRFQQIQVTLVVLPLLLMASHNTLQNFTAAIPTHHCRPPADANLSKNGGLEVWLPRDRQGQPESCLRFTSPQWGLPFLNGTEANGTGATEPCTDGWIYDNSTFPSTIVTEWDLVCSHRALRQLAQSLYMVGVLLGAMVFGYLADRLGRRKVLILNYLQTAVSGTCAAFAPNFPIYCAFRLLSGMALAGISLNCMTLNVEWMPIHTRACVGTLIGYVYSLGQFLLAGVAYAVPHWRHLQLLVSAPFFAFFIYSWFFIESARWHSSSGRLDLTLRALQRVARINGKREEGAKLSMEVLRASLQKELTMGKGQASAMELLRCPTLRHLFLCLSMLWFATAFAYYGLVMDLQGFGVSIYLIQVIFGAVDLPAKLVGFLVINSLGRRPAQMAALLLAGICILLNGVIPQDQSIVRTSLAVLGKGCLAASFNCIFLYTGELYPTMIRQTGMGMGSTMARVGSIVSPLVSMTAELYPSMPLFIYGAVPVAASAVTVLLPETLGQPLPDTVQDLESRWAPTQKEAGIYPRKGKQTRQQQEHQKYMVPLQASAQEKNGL

[2] = target: T2, human OAT1 Ser350Ala (S350A) (Homo sapiens, UniProt Q4U2R8, S350A); assay: as above; details: 8 min, read-out: 6-CF uptake, Mean
T2 sequence (Q4U2R8 1-563 S350A): T1 sequence (Q4U2R8 1-563 S350A)

[3] = target: T3, human OAT1 Tyr230Phe (Y230F) (Homo sapiens, UniProt Q4U2R8, Y230F); assay: Cell-based 6-CF transport assay, HsOAT1 Tyr230Phe mutant; details: 8 min, read-out: 6-CF uptake, Mean
T3 sequence (Q4U2R8 1-563 Y230F): T1 sequence (Q4U2R8 1-563 S350A) with Y230F, A350S

[4] = target: T4, OAT1 Gly227Ala (G227A) mutant, human (Homo sapiens, UniProt Q4U2R8, G227A); assay: in vitro; details: pH 7.2
T4 sequence (Q4U2R8 1-563 G227A): T1 sequence (Q4U2R8 1-563 S350A) with G227A, A350S

[5] = target: T5, wild-type human OAT1 (HsOAT1) (Homo sapiens, UniProt Q4U2R8); assay: Cell-based 6-CF transport assay, wild-type HsOAT1 in HeLa cells
T5 sequence (Q4U2R8 1-563): T1 sequence (Q4U2R8 1-563 S350A) with A350S

[6] = target: T6, OAT1 (wild-type human, HsOAT1) (Homo sapiens, UniProt Q4U2R8); assay: in vitro; details: pH 7.2
T6 sequence (Q4U2R8 1-563): T1 sequence (Q4U2R8 1-563 S350A) with A350S

[7] = target: T7, human OAT1 Gly227Ala (G227A) (Homo sapiens, UniProt Q4U2R8, G227A); assay: cell-based; details: 8 min, read-out: 6-CF uptake, Mean
T7 sequence (Q4U2R8 1-563 G227A): T1 sequence (Q4U2R8 1-563 S350A) with G227A, A350S

IC50 at 8 min [1]: 90 ± 4 µM
remaining activity at 1 µM [2]: 75%
remaining activity at 1.69897 µM [2]: 55.4%
remaining activity at 2 µM [2]: 38.2%
remaining activity at 2.30103 µM [2]: 19.4%
remaining activity at 2.60206 µM [2]: 8.3%
remaining activity at 2.69897 µM [2]: 6.5%
remaining activity at 1 µM [3]: 80.6%
remaining activity at 1.69897 µM [3]: 65.5%
remaining activity at 2 µM [3]: 46.5%
remaining activity at 2.30103 µM [3]: 29.5%
remaining activity at 2.69897 µM [3]: 12.7%
remaining activity at 3 µM [3]: 8.5%
IC50 at 8 min [4]: 209 ± 23 µM
substrate quality in 6-CF assay ([5]; 0.5 mM, uptake after 8 minutes, similar to literature ref 20): good substrate
6-CF uptake, Mean ([5]; ED Fig 4g WT aKG, uM column 1): 73.9973%
6-CF uptake, Mean ([5]; ED Fig 4g WT aKG, uM column 1.30103): 61.6%
6-CF uptake, Mean ([5]; ED Fig 4g WT aKG, uM column 1.69897): 56.1833%
6-CF uptake, Mean ([5]; ED Fig 4g WT aKG, uM column 2): 31.1737%
6-CF uptake, Mean ([5]; ED Fig 4g WT aKG, uM column 2.30103): 20.4275%
6-CF uptake, Mean ([5]; ED Fig 4g WT aKG, uM column 2.69897): 10.7041%
6-CF uptake, Mean ([5]; ED Fig 4g WT aKG, uM column 3): 6.448%
6-CF uptake, Mean ([5]; ED Fig 4d WT, compound at 0.5 uM): 89.2%
6-CF uptake, Mean ([5]; ED Fig 4d WT, compound at 1 uM): 83.5%
6-CF uptake, Mean ([5]; ED Fig 4d WT, compound at 10 uM): 72.1005%
6-CF uptake, Mean ([5]; ED Fig 4d WT, compound at 20 uM): 61.9754%
6-CF uptake, Mean ([5]; ED Fig 4d WT, compound at 50 uM): 53.2%
6-CF uptake, Mean ([5]; ED Fig 4d WT, compound at 100 uM): 31.9795%
6-CF uptake, Mean ([5]; ED Fig 4d WT, compound at 200 uM): 21.35%
6-CF uptake, Mean ([5]; ED Fig 4d WT, compound at 500 uM): 11.2%
6-CF uptake, Mean ([5]; ED Fig 4d WT, compound at 1000 uM): 5.62%
6-CF uptake, Mean ([5]; Fig 1f WT, α-KG, uM column 0.69897): 82%
6-CF uptake, Mean ([5]; Fig 1f WT, α-KG, uM column 1.30103): 73.9973%
6-CF uptake, Mean ([5]; Fig 1f WT, α-KG, uM column 1.69897): 61.6%
6-CF uptake, Mean ([5]; Fig 1f WT, α-KG, uM column 2): 56.1833%
6-CF uptake, Mean ([5]; Fig 1f WT, α-KG, uM column 2.30103): 31.1737%
6-CF uptake, Mean ([5]; Fig 1f WT, α-KG, uM column 2.69897): 20.4275%
6-CF uptake, Mean ([5]; Fig 1f WT, α-KG, uM column 3): 10.7041%
6-CF uptake, Mean ([5]; Fig 1f WT, α-KG, uM column 3.30103): 6.448%
IC50 at 8 min [6]: 70 ± 3.8 µM
remaining activity at 0.69897 µM [7]: 99.8%
remaining activity at 1.69897 µM [7]: 89.5%
remaining activity at 2 µM [7]: 75.2%
remaining activity at 2.30103 µM [7]: 54.5%
remaining activity at 2.69897 µM [7]: 48.6%
remaining activity at 3 µM [7]: 35.2%
remaining activity at 3.30103 µM [7]: 15.2%
Molecule: O=C(O)CCC(=O)C(=O)O [α-KG, α-ketoglutarate]

Molecule: malonate
6-CF transport in presence of dicarboxylate, single experiments ([5]; dicarboxylate 0.5 mM, 8 minutes, n = 8): 84.3122% and 81.221% and 78.2045% and 76.7397% and 81.6542% and 89.6452% and 76.3215% and 79.7447%

Source: paper PMC10643130, “Molecular basis for selective uptake and elimination of organic anions in the kidney by OAT1” (Nature Structural & Molecular Biology, 2023)
